One data set relates to WISH cells. Description: Apoptosis assay, Annexin V and propidium iodide flow cytometry. The note with it: 100 U/ml for 4 days, cells staining for both Annexin V and PI.
Data set [1] concerns pJAK1, pTYK2, IFNAR1 and IFNAR2 in the nucleus. In words: Western blot of nuclear fractions of type I IFN treated WISH cells. Format: cell-based, human. The conditions noted are these: versus untreated cells. (In general: Immunoblotting shows a protein as a band on a membrane.)
The subject of another data set is lymphocytes. Description: IFN toxicity in vivo: lymphocyte count on blood smears (Table 4). The note with it: day 11, i.p. alternate days for ten days, IFN mimetics 2 × 10^3 U in 200 μg per mouse, IFNβ 10^3 U/mouse.
Data set [2] in a line: IFN toxicity in vivo: body weight (FIG. 7). The note with it: 1,000 U per mouse I.P. on alternate days, by day 10.

Consider IFNα2, for which, in the data set on WISH cells, the toxicity/apoptosis above controls entry is “approximately 14%”. Further, the “IFNAR1 in the nucleus” value in data set [1] is listed as “increased several fold”.
For IFNβ, in the data set on lymphocytes, the “Lymphocytes (%)” value is 59 ± 6%. Besides, the “% Reduction (lymphocytes)” value in the data set on lymphocytes (versus PBS) came to 24%. Moreover, in data set [2], the weight loss entry was “approximately 15%”.

Source of the values: patent US9951111B2, “Type I interferon mimetics as therapeutics for cancer, viral infections, and multiple sclerosis” (priority 2011, dated 2018).
